# Measured affinities in a library of Ab-14 light chain variants

Reference: Li et al. 2023, doi:10.1038/s41467-023-39022-2. File: FLAb, binding data.

Target peptide (SARS-CoV-2 spike, HR2 region): PDVDLGDISGINAS

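Phage display of a naive human antibody library on the peptide gave the parent. Designed CDR sequences, proposed from the first random library and measured here. Several design methods are mixed in this list. AlphaSeq pools MATa yeast showing the antibodies with MATalpha yeast showing the peptide. Mating (16 h, 30 °C) was followed by selection of diploids and sequencing of their barcodes. Scores were corrected for input abundance and mapped to Kd with protein pairs of known affinity run in the same pool. There are six technical replicates.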

Ab-14 is the parent antibody, in scFv form: VH, then three GGGGS repeats, then VL. The heavy chain is unchanged in all variants.
VH: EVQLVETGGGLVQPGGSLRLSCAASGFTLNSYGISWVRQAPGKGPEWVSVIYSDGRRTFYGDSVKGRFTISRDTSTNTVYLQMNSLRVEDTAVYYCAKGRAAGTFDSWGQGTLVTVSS
VL: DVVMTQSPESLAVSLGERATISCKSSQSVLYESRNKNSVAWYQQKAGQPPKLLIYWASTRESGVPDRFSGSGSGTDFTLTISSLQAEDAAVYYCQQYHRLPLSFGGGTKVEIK

Each variant is given by its three light chain CDRs, as the data file delimits them; those of the parent are KSSQSVLYESRNKNSVA, WASTRES, QQYHRLPLS. This list holds designs with more than six substitutions. Values are apparent Kd, the geometric mean of the replicates that gave a signal; lower means stronger binding. A pair that was not seen in any replicate is written "nd"; this usually means weak binding, but a binder can also be missed. Values of this round are not directly comparable with the first-round values of the same sequences. The parent sequence was in this pool as ten entries: three were never detected, three once, and four in most replicates, with averages from 2.2 nM to 240 nM. Background: pairings of all light chain designs with three empty control strains gave a value in 4% of cases (median 430 nM, 5th percentile 38 nM). Values in that range, when seen in few replicates, are hard to tell from nonspecific mating. The authors' rule: three or more of the six replicates give a measured affinity, fewer mean a poor binder.

Variant HLMQSMLYESRNKNSVA / HASLRED / QQYHRLPLS showed 1.6 nM (6 of 6 replicates). Variant MMSQVTGMGQRHRNNVA / QTSTREP / QQYDRLPLV gave 12 nM (6 of 6 replicates). For KLHQSWLYGSRNANSVA / NASQREE / QQYHRLPLS, the assay gave 360 pM (6 of 6 replicates). For KFQQSQLYESRQKNSVA / NASCRCS / QQYHRLPLS, the assay gave 3.8 nM (6 of 6 replicates). Variant KIGGVTNGISRNKNSVA / EQSTRED / QQYDRLPLS gave 3.8 nM (6 of 6 replicates). For KISQEYLGESRNMNSVA / NASTREA / QQYHRLPLS, the assay gave 730 pM (6 of 6 replicates). With RLSLEHTGYWEMMNNIA / QASTKQF / QQYDRLPLH the result was 5.7 nM (6 of 6 replicates). With KVSMQVLMSSRNKNSVA / QANTRES / QQYHRLPLS the result was 3.2 nM (6 of 6 replicates). Variant MFDQMDKQQGMNTNNVA / GVEISRI / QQYSRLPFS showed 89 nM (5 of 6 replicates).

With KLLQEVQGRSQNRNSVA / HNSTRED / QQYDRLPLV the result was 140 nM (3 of 6 replicates). For KLSQSVEYQSRDKNAVA / DAQTRMS / QQYHRLPLS, the assay gave 710 pM (6 of 6 replicates). Variant SIGGHMKSLSARMNSVA / DMTNRED / QQYDRLPLS showed 3.3 nM (6 of 6 replicates). With KISMLQRYEQQNKNSIA / EMSRREN / QQYHRLPLS the result was 1.4 nM (6 of 6 replicates). Variant KIERSTKGDAYFQYSIA / QGDIREK / QQYAQLPLT showed 22 nM (6 of 6 replicates). For MISQISSMGQFAKNSVA / QASTRNA / QQYDHLPLI, the assay gave 3.5 nM (6 of 6 replicates). Variant KLSMSVDYMSATHSSVA / QTSTREE / QQYHRLPLI gave 15 nM (6 of 6 replicates). With HFQHLGFGDFAWANSIA / ERSQVCE / QQYFRLPLG the result was 15 nM (6 of 6 replicates). Variant KLQFSCLYESRNKNSVA / DASYRSS / QQYHRLPLS showed 790 pM (6 of 6 replicates).

Variant SFSQTVMYESTYRNNVA / QTSTRES / QQYDRLPLS showed 3.7 nM (6 of 6 replicates). Variant KVSQFMRGLTQRKDSIA / DNNTRGS / QQYDRLPLS showed 35 nM (6 of 6 replicates). For HLLYAQNTGSLYDNNVA / EGETVLD / QQYFRLPIT, the assay gave 24 nM (6 of 6 replicates). For HMSALTLMGSRQRNSVA / QMTTREN / QQYDRLPLA, the assay gave 1.7 nM (6 of 6 replicates). Variant KLSQSWLYESANSNSVA / HASQRED / QQYHRLPLS showed 2.5 nM (6 of 6 replicates). For KIMQTLNYSQFNVSNVA / GQETRER / QSYHRLPLS, the assay gave 230 nM (5 of 6 replicates). With IVSQLMLWGMHVKNSIA / EAQTRLN / QQYERLPLF the result was nd (0 of 6 replicates). Variant KLLQEVSGRSQNRNSVA / HNSTRED / QQYDRLPLI gave 540 nM (4 of 6 replicates). With QLQMDPGESLRSTHSIA / DVNIKDM / QQYARLPLA the result was 1.6 nM (6 of 6 replicates).

Variant KLSSSHLYGDRMKNSVA / QASQREM / QQYHRLPLS showed 3.2 nM (6 of 6 replicates). Variant KVFMELAEDKASTRNIA / DASVHCA / QQYVRLPLG gave 24 nM (6 of 6 replicates). For RLRGLNFESGNARNNIA / DAHIHEV / QQYAWLPLC, the assay gave 65 nM (6 of 6 replicates). Variant KLESLMGESYAEKENIA / EGEQRFS / QQYVRLPLH showed 140 nM (6 of 6 replicates). With KLSMTYRYESENKNSIA / ELVTRMS / QQYHRLPLS the result was 8.8 nM (5 of 6 replicates). Variant KLTMITGLEKVHGNNVA / EMETREK / QQYNRLPLS showed 790 pM (6 of 6 replicates). With TISQLHNMGTFAINSVA / QAEIRNA / QQYDRLPLM the result was 57 nM (6 of 6 replicates). Variant KTSQSWLFEDRMSRSVA / GASTRES / QQYHRLPLS gave 1.2 nM (6 of 6 replicates). For KLSQVTHSESRNKNNIA / EMVTREV / QQYDRLPLS, the assay gave 4.5 nM (6 of 6 replicates).

For TIGQMFLGESRNRNSVA / QASTRES / QSYDRLPLS, the assay gave 7.0 nM (6 of 6 replicates). For KSSCSEPYDSPNSNSVA / NASTRER / QQYHRLPLS, the assay gave 3.5 nM (6 of 6 replicates). Variant QIYQAMHTLMQQKNNVA / DVTNRTK / QQYNRLPLS showed 12 nM (6 of 6 replicates). With KLSLMYQHTSRNKNNIA / ERSTRES / QQYHHLPLS the result was 3.5 nM (6 of 6 replicates). For KIEGSMLYEDRNKNSVA / NASQREV / QAYHRLPLS, the assay gave 790 pM (6 of 6 replicates). With KLSQSGLYGQRNKMSVA / QASQRES / QQYHRLPLS the result was 2.9 nM (6 of 6 replicates). For RVQLNSGHIDMHWYSIA / SASIRAD / QQYFRLPLF, the assay gave 720 pM (6 of 6 replicates). For KISSLTAYESVNKNSVA / EMSTRPS / QSYHRLPLS, the assay gave 4.0 nM (6 of 6 replicates).

7 of these entries, quoted again:

| CDR-L1 | CDR-L2 | CDR-L3 | Kd | detected |
|---|---|---|---|---|
| KLSLMYQHTSRNKNNIA | ERSTRES | QQYHHLPLS | 3.5 nM | 6/6 |
| RVQLNSGHIDMHWYSIA | SASIRAD | QQYFRLPLF | 720 pM | 6/6 |
| KISSLTAYESVNKNSVA | EMSTRPS | QSYHRLPLS | 4.0 nM | 6/6 |
| MISQISSMGQFAKNSVA | QASTRNA | QQYDHLPLI | 3.5 nM | 6/6 |
| KLSQVTHSESRNKNNIA | EMVTREV | QQYDRLPLS | 4.5 nM | 6/6 |
| HLMQSMLYESRNKNSVA | HASLRED | QQYHRLPLS | 1.6 nM | 6/6 |
| KSSCSEPYDSPNSNSVA | NASTRER | QQYHRLPLS | 3.5 nM | 6/6 |